The values that follow are results of earlier work, collected in PMC10516900 (Communications Biology, 2023).

The series concerns the target Ub. Set-up: method as in PMID 29056420. The following applies: wild type USP7; read-out: binding affinity for Ub; cited from earlier work.

For the substance “USP7: wild type USP7, Ub binding value from ref 29”, the Kd was 106 ± 15.9 µM.
